The Ki is the equilibrium dissociation constant of an inhibitor or competing ligand from its target.

Protein sequences, listed by entry. Tags and fused reporters are not part of them. Residues count along the entry.
UniProt P27815, 1-686 isoform P27815-3: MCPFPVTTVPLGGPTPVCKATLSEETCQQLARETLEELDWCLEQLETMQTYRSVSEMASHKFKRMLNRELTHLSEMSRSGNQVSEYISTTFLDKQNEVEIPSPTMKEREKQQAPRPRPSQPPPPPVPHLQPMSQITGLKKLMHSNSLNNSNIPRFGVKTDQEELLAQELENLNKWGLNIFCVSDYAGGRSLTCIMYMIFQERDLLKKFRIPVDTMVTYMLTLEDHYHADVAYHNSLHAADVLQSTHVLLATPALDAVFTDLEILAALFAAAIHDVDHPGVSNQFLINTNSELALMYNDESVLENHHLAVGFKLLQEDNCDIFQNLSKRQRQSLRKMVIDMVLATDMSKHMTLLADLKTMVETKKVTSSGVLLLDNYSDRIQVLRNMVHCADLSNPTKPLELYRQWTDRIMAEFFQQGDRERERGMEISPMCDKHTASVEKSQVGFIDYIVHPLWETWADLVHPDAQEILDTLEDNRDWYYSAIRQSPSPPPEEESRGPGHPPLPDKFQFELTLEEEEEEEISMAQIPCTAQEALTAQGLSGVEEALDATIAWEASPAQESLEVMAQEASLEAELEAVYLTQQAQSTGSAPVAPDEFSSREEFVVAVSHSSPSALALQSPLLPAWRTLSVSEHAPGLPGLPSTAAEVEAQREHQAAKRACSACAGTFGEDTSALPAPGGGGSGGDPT
UniProt Q07343, 1-564 isoform Q07343-2: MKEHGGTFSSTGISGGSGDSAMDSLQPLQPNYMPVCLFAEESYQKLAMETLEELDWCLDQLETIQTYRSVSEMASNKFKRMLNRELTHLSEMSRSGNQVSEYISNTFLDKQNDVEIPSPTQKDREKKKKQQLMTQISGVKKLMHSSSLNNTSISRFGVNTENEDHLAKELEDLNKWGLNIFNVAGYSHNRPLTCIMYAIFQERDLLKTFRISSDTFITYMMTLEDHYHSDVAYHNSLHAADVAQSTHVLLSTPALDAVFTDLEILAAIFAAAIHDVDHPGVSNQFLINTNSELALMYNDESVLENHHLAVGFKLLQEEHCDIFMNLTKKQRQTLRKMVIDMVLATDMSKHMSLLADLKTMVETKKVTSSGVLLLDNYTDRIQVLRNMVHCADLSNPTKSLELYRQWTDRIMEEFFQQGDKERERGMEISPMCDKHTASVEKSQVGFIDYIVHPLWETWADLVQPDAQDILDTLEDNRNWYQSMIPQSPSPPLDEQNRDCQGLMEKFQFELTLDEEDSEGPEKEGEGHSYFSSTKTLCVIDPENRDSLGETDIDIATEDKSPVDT

One assay addresses hPDE IVA (Homo sapiens, UniProt P27815). To be noted: Table I, data from Torphy et al. 1992, read-out: R-Rolipram Ki; cited from earlier work.
For a further assay, the target named is hPDE IVB (Homo sapiens, UniProt Q07343). The experiment in a line: PDE assay: cAMP hydrolysis by recombinant hPDE IVB in yeast lysate supernatant. The note with it: inhibition of cAMP hydrolysis, recombinant hPDE IVB expressed in yeast.

Consider R-rolipram, for which the Ki is 60 nM at hPDE IVA and 85 nM at hPDE IVB.
